From ChEMBL document CHEMBL5500416, “Development of a Potent and Selective G2A (GPR132) Agonist” (J Med Chem, 2024)

Biological target: T1, Probable G-protein coupled receptor 132 (Mus musculus) (UniProt Q9Z282)
T1 sequence (whole entry): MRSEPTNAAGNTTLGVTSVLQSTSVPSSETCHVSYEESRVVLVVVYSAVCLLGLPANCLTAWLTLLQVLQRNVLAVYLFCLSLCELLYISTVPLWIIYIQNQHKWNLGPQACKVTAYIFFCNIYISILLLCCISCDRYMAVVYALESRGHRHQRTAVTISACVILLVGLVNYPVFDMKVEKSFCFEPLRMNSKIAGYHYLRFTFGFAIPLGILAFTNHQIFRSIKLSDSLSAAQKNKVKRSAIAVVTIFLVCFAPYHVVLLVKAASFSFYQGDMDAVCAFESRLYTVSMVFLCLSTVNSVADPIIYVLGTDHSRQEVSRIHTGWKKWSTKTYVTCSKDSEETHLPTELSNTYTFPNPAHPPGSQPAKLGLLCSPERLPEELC
Test: Agonist activity at G2A in capsaicin-induced mouse primary sensory neurons assessed as induction of TRPV1 sensitization by measuring increase in amplitude of calcium response at 100 nM preincubated with capsaicin for 30 sec followed by compound administration for 4 mins and measured 30 sec after second capsaicin addition by calcium imaging analysis relative to control
Format: cell-based
Conditions: Primary sensory neuron, filed as agonist, time 4.5 min

SMILES: O=C(N[C@H](Cc1ccccc1)C(=O)O)c1cccc(OCc2cccnc2)c1
- Activity: 244%
